Some compounds may have been tested in ways that are not shown here.
Experiments:
Myzus persicae [1] = assay: Aphicidal activity against Myzus persicae (green peach aphid) in cabbage leaf at <50 ppm after 2 days
Tetranychus urticae [2] = assay: Acaricidal activity against Tetranychus urticae (two-spotted spider mite) in French bean leaf at <50 ppm after 2 days
Myzus persicae [3] = assay: Aphicidal activity against Myzus persicae (green peach aphid) in cabbage leaf at 200 to 800 ppm after 2 days
Tetranychus urticae [4] = assay: Acaricidal activity against Tetranychus urticae (two-spotted spider mite) in French bean leaf at 200 to 800 ppm after 2 days
Myzus persicae [5] = assay: Aphicidal activity against Myzus persicae (green peach aphid) in cabbage leaf at 800 ppm after 2 days
Tetranychus urticae [6] = assay: Acaricidal activity against Tetranychus urticae (two-spotted spider mite) in French bean leaf at 800 ppm after 2 days

Compound	Activity (Myzus persicae [3]) [%]	Activity (Tetranychus urticae [6]) [%]	other results
CCCSP(=O)(OCC)N1CCOC1=O (stereo not drawn)			Activity (Myzus persicae [1]): > 90%; Activity (Tetranychus urticae [2]): > 90%
CCOP(=O)(SC)N1CCOC1=O (stereo not drawn)	> 90		Activity (Tetranychus urticae [4]): > 90%
CCOP(=O)(SC(C)CC)N1CCCC1 (stereo not drawn)		< 90	Activity (Myzus persicae [5]): < 90%
CCOP(=O)(SC(C)CC)N1CCSC1 (stereo not drawn)	> 90	< 90	

From ChEMBL document CHEMBL3044645, “Synthesis and Pesticidal Activities of N-Phosphinoyl Heterocycles” (J Pestic Sci, 1997)
